AlphaSeq binding of Ab-14 heavy chain variants to a spike HR2 peptide

Source: Li et al. 2023 (doi:10.1038/s41467-023-39022-2), MIT Lincoln Laboratory and A-Alpha Bio; data file from the FLAb repository.

All variants were tested on one target, the spike HR2 peptide PDVDLGDISGINAS (SARS-CoV-2).

Ab-14 is the parent antibody, in scFv form: VH, then the linker GGGGSGGGGSGGGGS, then VL. The light chain is unchanged in all variants.
VH: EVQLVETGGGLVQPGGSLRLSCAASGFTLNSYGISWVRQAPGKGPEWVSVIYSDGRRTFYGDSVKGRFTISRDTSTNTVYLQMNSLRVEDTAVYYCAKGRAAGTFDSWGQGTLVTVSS
VL: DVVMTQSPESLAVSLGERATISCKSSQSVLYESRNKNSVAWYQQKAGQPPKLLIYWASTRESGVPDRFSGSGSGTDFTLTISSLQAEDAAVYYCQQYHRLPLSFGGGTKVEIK

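The starting antibody came from a phage panning campaign against this peptide. This is the validation round: designs drawn from the data on random variants, tested in the same kind of assay. Their group label is 14H_GPLM_Gen (GPLM: also part of the Gaussian process libraries; Gen: genetic algorithm; a sequence that several methods proposed may carry one label only). The scFvs were displayed on barcoded MATa yeast, the peptide on MATalpha yeast. Pairs that bind mate more often; barcode pairs of the diploids are counted by sequencing. Read counts were normalised to the haploid input and turned into Kd by a linear fit to BCL2-family pairs of known affinity, for each replicate. Mating was done six times.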

Variants are written as CDR1, CDR2 and CDR3 of the heavy chain (limits as in the source). Parent: GFTLNSYGIS, VIYSDGRRTFYGDSVK, GRAAGTFDS. Affinities are written as log10 Kd with Kd in nM; a lower number is a better binder. The mean shown is taken over the replicates in which the pair was detected. "nd" marks a missing value. The strain was present, yet no cells mated with the target were sequenced in that replicate, which points to weak or no binding. The authors averaged sequences with at least three values out of six and counted those with two or fewer as poor binders. Three control strains display no target. For all heavy chain designs, 1% of the pairings with them gave a signal, with a median of 2.08 and one signal in twenty below 0.84, so weak values seen in few replicates may be background. Also given: how often the same scFv was detected with the empty control strains, with their mean in brackets. The parent sequence was in this pool as ten entries: three were never detected, three once, and four in most replicates, with averages from 0.34 to 2.37. The range of this assay differs from that of the first round, and the authors advise against merging the two.

| # | CDR-H1 | CDR-H2 | CDR-H3 | log10 Kd (nM) by replicate | mean log10 Kd (nM) | empty controls |
|---|---|---|---|---|---|---|
| 1 | GFSLNWYGIS | VIYSDGRRTFYGDSVK | GRQAGTFDS | nd 1.66 1.69 nd 3.71 1.54 | 2.15 | 2 of 18 (1.64) |
| 2 | GFSLNDYGIS | VIYSDGRRTFYGDNVK | GRTAGTFDS | -0.02 -0.31 0.03 -0.31 -0.27 -0.21 | -0.18 | 0 of 18 |
| 3 | GFDLNSYGIS | VIYSDGRRTFYMDSVK | GRTAGTFDS | -0.52 0.02 -0.10 -0.27 -0.42 -0.03 | -0.22 | 0 of 18 |
| 4 | GFSLNSYGIS | VIYSDGRRTFYADSVK | GNAAGTFDN | 1.24 0.50 0.33 1.03 0.28 1.26 | 0.77 | 0 of 18 |
| 5 | GFWLNDYGIS | VIYSDGRRTFYIDSVK | GKAAGTFDS | nd 1.17 1.29 0.46 1.73 1.01 | 1.13 | 0 of 18 |
| 6 | GFSLNEYGIS | VIYSDGRRTFYTDSVK | GRTAGTFDS | -0.46 0.30 -0.20 0.27 -0.23 -0.22 | -0.09 | 0 of 18 |
| 7 | GFTLDSYGIS | VIYSDGRRTFYADSVK | GRTAGTFDS | 0.47 0.31 0.69 -0.03 0.45 0.43 | 0.39 | 0 of 18 |
| 8 | GFSLNDYGIS | VIYSDGRRTFYQDSVK | GRTAGTFDS | -0.44 -0.61 -0.33 -0.37 -0.14 -0.63 | -0.42 | 0 of 18 |
| 9 | GFQLNEYGIS | VIYSDGRRTFYADSVK | GKAAGTFDS | 0.39 -0.35 0.14 -0.25 0.36 0.54 | 0.14 | 0 of 18 |
| 10 | GFHLNSYGIS | VIYSDGRRTFYGDSVK | GEAAGTFDS | 0.62 1.35 0.73 nd 0.76 1.24 | 0.94 | 0 of 18 |
| 11 | GFGLNSYGIS | VIYSDGRRTFYADSVK | GKAAGTFDS | 0.87 1.01 0.82 1.15 0.67 0.75 | 0.88 | 0 of 18 |
| 12 | GFSLNSYGIS | VIYSDGRRTFYHDSVK | GREAGTFDS | 1.04 0.69 0.11 -0.05 0.02 -0.04 | 0.30 | 0 of 18 |
| 13 | GFTLESYGIS | VIYSDGRRTFYGDSVK | GRVAGTFDT | 1.77 -0.23 nd nd nd -0.53 | 0.34 | 0 of 18 |
| 14 | GFTLNDYGIS | VIYSDGRRTFYGDSVK | GRTAGTFDL | 0.64 1.62 0.70 0.16 0.12 0.65 | 0.65 | 0 of 18 |
| 15 | GFSLNSYGIS | VIYSDGRRTFYGDSVK | GVVAGTFDS | -0.06 0.29 -0.06 -0.41 -0.06 0.12 | -0.03 | 0 of 18 |
| 16 | GFSLNDYGIS | VIYSDGRRTFYIDSVK | GRAAGTFDS | 0.52 0.55 0.44 0.11 0.52 0.41 | 0.42 | 0 of 18 |
| 17 | GFSLNSYGIS | VIYSDGQRTFYGDSVK | GRVAGTFDS | 0.60 0.04 -0.29 -0.66 -0.55 -0.14 | -0.17 | 1 of 18 (0.61) |
| 18 | SFTLNSYGIS | VIYADGRRTFYGDSVK | GEAAGTFDS | -0.11 -0.11 0.05 -0.75 -0.22 -0.41 | -0.26 | 0 of 18 |
| 19 | GFSLNSYGIS | VIYSDGRRTFYADSVK | GNAAGTFDS | 0.40 -0.30 -0.33 -0.36 -0.12 0.18 | -0.09 | 0 of 18 |
| 20 | GFSLNSYGIS | VIYSDGRRTFYADAVK | GRTAGTFDS | 3.51 0.09 -0.08 1.20 0.48 0.40 | 0.93 | 0 of 18 |
| 21 | GFKLNSYGIS | VIYADGRRTFYGDSVK | GRAAGTFDS | 0.26 -0.11 -0.22 -0.01 -0.20 0.01 | -0.05 | 0 of 18 |
| 22 | GFELNSYGIS | VIYADGRRTFYGDSVK | GWAAGTFDS | 1.31 1.05 0.67 0.72 0.98 1.03 | 0.96 | 0 of 18 |
| 23 | GFSLNQYGIS | VIYSDGRRTFYGDSVK | GQTAGTFDS | -0.02 0.06 -0.10 -0.10 0.04 0.28 | 0.03 | 0 of 18 |
| 24 | GFHLNSYGIS | VIYSDGRRTFYADDVK | GRTAGTFDS | -0.14 -0.32 -0.37 -0.43 -0.04 0.27 | -0.17 | 0 of 18 |
| 25 | GFSLNSYGIS | VIYSDGRRTFYEDSVK | GRTAGTFDS | 0.57 0.41 nd 0.09 0.29 0.08 | 0.29 | 1 of 18 (0.72) |
| 26 | GFQLNEYGIS | VIYSDGRRTFYSDSVK | GKAAGTFDS | 0.21 -0.24 -0.18 -0.44 -0.36 0.00 | -0.17 | 0 of 18 |
| 27 | GFALNEYGIS | VIYSDGRRTFYGDSVK | GRTAGTFDS | 0.53 0.12 -0.05 -0.15 -0.31 0.23 | 0.06 | 0 of 18 |
| 28 | GFSLNDYGIS | VIYSDGRRTFYGDSVK | GRQAGTFDS | -0.09 -0.97 -0.91 -0.87 -0.55 0.27 | -0.52 | 0 of 18 |
| 29 | GFSLNNYGIS | VIYSDGRRTFYGDQVK | GRTAGTFDS | 1.01 0.63 0.56 0.66 0.95 0.46 | 0.71 | 1 of 18 (2.45) |
| 30 | GFSLNSYGIS | VIYSDGRRTFYTDSVK | GTAAGTFDS | -0.10 -0.17 -0.41 -0.21 0.10 -0.04 | -0.14 | 0 of 18 |
| 31 | GFSLNNYGIS | VIYSDGRRTFYGDSVK | GMAAGTFDS | 1.11 1.22 0.42 0.66 0.25 1.78 | 0.91 | 0 of 18 |
| 32 | GFWLNEYGIS | VIYSDGRRTFYGDSVK | GQAAGTFDK | nd 1.65 1.68 nd nd 1.95 | 1.76 | 0 of 18 |
| 33 | GFSLNEYGIS | VIYSDGRRTFYGDSVK | GRSAGTFDS | 0.14 -0.47 0.13 -1.06 -0.46 0.27 | -0.24 | 0 of 18 |
| 34 | KFDLNSYGIS | VIYSDGRRTFYADSVK | GQAAGTFDS | 1.59 1.50 1.09 1.09 1.03 1.80 | 1.35 | 0 of 18 |
| 35 | MFSLNSYGIS | VIYSDGRRTFYGDSVK | GEAAGTFDS | nd nd nd nd nd nd | nd | 0 of 18 |
| 36 | GFDLNSYGIS | VIYSDGRRTFYADSVK | GTAAGTFDS | 0.93 0.27 0.24 0.58 0.83 0.81 | 0.61 | 0 of 18 |
| 37 | GFTLESYGIS | VIYSDGRRTFYADSVK | GREAGTFDS | 0.50 0.04 0.09 0.11 0.13 0.53 | 0.23 | 0 of 18 |
| 38 | GFSLNEYGIS | VIYSDGRRTFYCDSVK | GRTAGTFDS | 0.42 0.70 0.32 0.32 0.15 0.14 | 0.34 | 0 of 18 |
| 39 | GFTLNSYGIS | VIYADGRRTFYGDSVK | GEAAGTFES | 0.16 0.04 nd 0.44 0.72 1.13 | 0.50 | 0 of 18 |
| 40 | GFSLNSYGIS | VIYSDGRRTFYGDSVK | GQAAGTFDR | nd 1.44 nd nd nd nd | 1.44 | 0 of 18 |
| 41 | GFDLNNYGIS | VIYSDGRRTFYADSVK | GRAAGTFDS | nd 0.90 0.98 0.69 0.00 0.82 | 0.68 | 0 of 18 |
| 42 | GFTLNSYGIS | VIYSDGRRTFYSDSVK | GQEAGTFDT | -0.19 -0.16 -0.31 -0.23 -0.27 -0.10 | -0.21 | 0 of 18 |
| 43 | GFSLNSYGIS | VIYSDGRRTFYADSVK | GNAAGTFDQ | 0.13 1.11 0.46 2.92 0.21 0.76 | 0.93 | 0 of 18 |
| 44 | GFHLNEYGIS | VIYSDGRRTFYGDSVK | GKAAGTFDS | 0.27 0.73 0.02 -0.22 -0.23 0.65 | 0.20 | 0 of 18 |
| 45 | GFSLNSYGIS | VIYSDGRRTFYMDSVK | GQAAGTFDS | 1.21 1.88 2.18 0.85 nd 1.69 | 1.56 | 0 of 18 |
| 46 | GFTLNSYGIS | VIYSDGRRTFYSDSVK | GEAAGTFDR | 1.30 0.73 1.14 1.17 0.65 1.42 | 1.07 | 0 of 18 |
| 47 | GFELNSYGIS | VIYSDGRRTFYSDSVK | GKAAGTFDS | 1.47 0.43 0.93 0.79 0.07 1.48 | 0.86 | 0 of 18 |
| 48 | GFTLNEYGIS | VIYSDGRRTFYGDSVK | GRTAGTFDE | 0.03 -0.02 0.44 -0.41 0.01 -0.11 | -0.01 | 0 of 18 |

Top 7 of the variants detected in all replicates, tightest first:

| CDR-H1 | CDR-H2 | CDR-H3 | log10 Kd (nM) by replicate | mean log10 Kd (nM) | empty controls |
|---|---|---|---|---|---|
| GFSLNDYGIS | VIYSDGRRTFYGDSVK | GRQAGTFDS | -0.09 -0.97 -0.91 -0.87 -0.55 0.27 | -0.52 | 0 of 18 |
| GFSLNDYGIS | VIYSDGRRTFYQDSVK | GRTAGTFDS | -0.44 -0.61 -0.33 -0.37 -0.14 -0.63 | -0.42 | 0 of 18 |
| SFTLNSYGIS | VIYADGRRTFYGDSVK | GEAAGTFDS | -0.11 -0.11 0.05 -0.75 -0.22 -0.41 | -0.26 | 0 of 18 |
| GFSLNEYGIS | VIYSDGRRTFYGDSVK | GRSAGTFDS | 0.14 -0.47 0.13 -1.06 -0.46 0.27 | -0.24 | 0 of 18 |
| GFDLNSYGIS | VIYSDGRRTFYMDSVK | GRTAGTFDS | -0.52 0.02 -0.10 -0.27 -0.42 -0.03 | -0.22 | 0 of 18 |
| GFTLNSYGIS | VIYSDGRRTFYSDSVK | GQEAGTFDT | -0.19 -0.16 -0.31 -0.23 -0.27 -0.10 | -0.21 | 0 of 18 |
| GFSLNDYGIS | VIYSDGRRTFYGDNVK | GRTAGTFDS | -0.02 -0.31 0.03 -0.31 -0.27 -0.21 | -0.18 | 0 of 18 |